According to patent US11584714B2 (dated 2023):
Counter-ions that a name gives are not always drawn.

Chains of the proteins cited; added tags and fusions are not shown. Residues count along the entry.
UniProt O00187, 445-686: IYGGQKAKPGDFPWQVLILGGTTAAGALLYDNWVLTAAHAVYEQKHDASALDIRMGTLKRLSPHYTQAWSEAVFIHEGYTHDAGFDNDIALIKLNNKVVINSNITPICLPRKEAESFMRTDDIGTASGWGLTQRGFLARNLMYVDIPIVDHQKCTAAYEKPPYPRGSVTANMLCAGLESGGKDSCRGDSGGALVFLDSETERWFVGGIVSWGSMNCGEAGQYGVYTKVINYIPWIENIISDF

Biological target: MASP-2 (CCP1-CCP2-SP) (Homo sapiens (Human), UniProt O00187)
Assay type: biochemical
Conditions: read-out: MASP-2 Ki

Cc1nc(N)ccc1CNC(=O)C(C)NC(=O)[C@H]1C[C@H](c2cccc(-c3ccccc3)c2)CN1 (stereo in doubt) [compound 1360, (2R,4R)-4-([1,1′-Biphenyl]-3-yl)-N—((R)-1-(((6-amino-2-methylpyridin-3-yl)methyl)amino)-1-oxopropan-2-yl)pyrrolidine-2-carboxamide Di-trifluoroacetate salt]
Ki: < 500 nM
